Test system: HepG2 cytotoxicity
Assay: HepG2 cell cytotoxicity, cytotoxicity control (AID 1159563)

For `CC(C)(C)c1ccc(NC2(C(N)=O)CCN(Cc3ccccc3)CC2)cc1`, the IC50 was 50 µM.

Source: PubChem BioAssay AID1159563 (GlaxoSmithKline (GSK), 2015)
